According to US20140328940A1, “MODULATION OF AXON DEGENERATION” (Genentech, Inc., priority 2009, published 2014):

System: dorsal root ganglion neurons
Test: EGFR ectodomain in NGF withdrawal degeneration of DRGs
Format: cell-based, mouse
Settings: 50 μg/ml; added 24 hours prior to or at the same time as anti-NGF
Experimental: Materials used in these studies include BD Biocoat PDL/Laminin coated glass 8 well chamber slides (BD 354688); L15 medium (Invitrogen 11415114); albumin from bovine serum (BSA) (Sigma A7906-500g); fetal bovine serum (Sigma F2442-100 ml); N3 supplement (see above); Fluoromount G (Electron Microscopy Sciences 17984-25); 24×60 min No. 1 coverslips (VWR 48393 106); monoclonal anti neuronal class III beta-tubulin (Covance MMS-435P); Nerve Growth Factor 2.5 S, mouse (Roche 11362348001) in Ham's F12; and Triton X-100 (Sigma T8787-100 ml). Solutions used in these experiments include 25 ml N3/F12 medium (23 ml of Ham's F12; 1 ml of N3 supplement; 1 ml of 1M glucose; 25 ng/ml of NGF) and 30% Sucrose/8% PFA (see above).
Ectodomains (R&D Systems) were resuspended in sterile filtered 0.1% BSA in PBS to 1 mg/ml. Mouse E13.5 embryos were dissected out and place into L15 medium. Using forceps, the ventral region of the embryo was opened, organs removed, ribs cut away, and spinal cord dissected out with DRGs attached. The spinal cords with DRGs attached were placed into L15 medium+5% goat serum on ice. DRGs were removed with a tungsten needle and the remaining spinal cord was disposed of 8 well slides were filled with N3-F12 plus 25 ng/ml NGF. DRGs were sectioned into halves. […]

EGFR ectodomain: EGFR ectodomain from R&D Systems
block of degeneration induced by NGF withdrawal: does not block degeneration
